Experimental data reported in patent US4925968A, “N-acyl-N-naphthoylglycines as aldose reductase inhibitors” (American Home Products Corporation, priority 1989, dated 1990).

Tested on: aldose reductase
Experiment: galactitol (dulcitol) accumulation in lens, sciatic nerve and diaphragm of galactosemic rats
Format: in vivo, rat (Sprague-Dawley, male)
Conditions: 51 mg/kg, 4 days
Text: Such experiments are exemplified hereinbelow after the listing of the following general comments pertaining to these experiments: (a) Four or more groups of six male rats, 50-70 g, Sprague-Dawley strain, were used. The first group, the control group, was fed a mixture of laboratory chow (rodent Laboratory Chow, Purina) and glucose at 20% (w/w %) concentration. […] The test compound was either admixed to the diet or administered by gavage. In experiments involving compound administration in the diet, the average dose administered was calculated from the actual food intake of the animals in each group. The concentration of galactose in the diet of the treated groups was the same as that for the untreated galactosemic group. (b) After four days, the animals were killed by decapitation. The eyeballs were removed and punctured with a razor blade; the freed lenses were rolled gently on filter paper and weighed. The sciatic nerves were dissected as completely as possible and weighed. Both tissues when frozen can be kept up to two weeks before being analyzed for galactitol. […] Only two minor reagent changes were made: (a) The rinsing mixture was an aqueous 5% (w/v) trichloroacetic acid solution and (b) the stock solution was prepared by dissolving 25 mg of dulcitol in 100 mL of an aqueous trichloroacetic acid solution. […]

COC(=O)N(CC(=O)O)C(=S)c1cccc2c(C(F)(F)F)c(OC)ccc12 [Example 18a, N-[[6-Methoxy-5-(trifluoromethyl)-1-naphthalenyl]thioxmethyl]-N-[(methoxy)carbonyl]glycine]
% Lowering dulcitol accumulation IN VIVO, L: N.S.
